Like-named read-outs stand apart in the source and are kept apart here.
How the values were obtained:
[1] = tested on: human multiple myeloma cell line, OPM-2; experiment: Cell viability assay (OPM-2 10 FBS), CellTiter-Glo; format: cell-based
[2] = target: recombinant human Mcl-1 (residues 171-327) / Bim interaction (Homo sapiens (Human), UniProt Q07820); settings: read-out: Mcl-1 HTRF IC50
OPM-2 Luc cells = experiment: tumor PD model (OPM-2 Luc); format: in vivo; settings: dosed orally to female athymic nude mice inoculated with OPM-2 Luc cells; compared with Reference Compound 1
[3] = read-out: OPM-2 10% FBS IC50 IP, OPM-2 cells, 16 h incubation
[4] = 0.1 nM Mcl-1(171-327), 0.05 nM biotin-Bim (51-76)
[5] = read-out: OPM-2 10% FBS IC50 IP, OPM-2 cells, 16 h, CellTiter-Glo
[6] = TR-FRET, Mcl-1(171-327) / biotin-Bim (51-76)

Protein sequences, listed by entry. Tags and fused reporters are not part of them. Residues count along the entry.
UniProt Q07820, 171-327 limits assumed: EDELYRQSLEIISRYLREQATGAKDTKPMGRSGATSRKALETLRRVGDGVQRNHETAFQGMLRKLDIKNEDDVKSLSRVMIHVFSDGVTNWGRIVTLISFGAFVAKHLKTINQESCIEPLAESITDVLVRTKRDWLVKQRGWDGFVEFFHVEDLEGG

SMILES: C[C@@H]1[C@@H](C)CCCC(O)(CN2CCN3CCNCC3C2)[C@@H]2CC[C@H]2CN2C[C@@]3(CCCc4cc(Cl)ccc43)COc3ccc(cc32)C(=O)NS1(=O)=O (stereo partly shown)
- IC50 [1, 3]: 4980 nM
- IC50 [2, 4]: 0.315 nM

SMILES: C[C@@H]1[C@@H](C)CCCC(O)(CNCCO)[C@@H]2CC[C@H]2CN2C[C@@]3(CCCc4cc(Cl)ccc43)COc3ccc(cc32)C(=O)NS1(=O)=O (stereo partly shown)
- IC50 [1, 3]: 17200 nM
- IC50 [2, 4]: 3.38 nM

SMILES: COC(=O)CCN1CCN2CCN(C[C@@]3(O)CCC[C@H](C)[C@@H](C)S(=O)(=O)NC(=O)c4ccc5c(c4)N(C[C@@H]4CC[C@H]43)C[C@@]3(CCCc4cc(Cl)ccc43)CO5)CC2C1 (stereo partly shown)
- IC50 [1, 3]: 110 nM

SMILES: COCC[C@@H]1[C@@H](C)C/C=C/[C@@](CN2CCN3CCOC[C@@H]3C2)(OC)[C@@H]2CC[C@H]2CN2C[C@@]3(CCCc4cc(Cl)ccc43)COc3ccc(cc32)C(=O)NS1(=O)=O
- in vivo efficacy relative to Reference Compound 1 in a tumor PD model (OPM-2 Luc cells): superior in vivo efficacy

SMILES: COC1(CO)/C=C/C[C@H](C)C(Cc2ccccc2)S(=O)(=O)NC(=O)c2ccc3c(c2)N(C[C@@H]2CC[C@H]21)C[C@@]1(CCCc2cc(Cl)ccc21)CO3 (single isomer, unassigned)
- IC50 [1, 5]: 117 nM
- IC50 [2, 6]: 0.075 nM

SMILES: C[C@@H]1[C@@H](C)CCCC(O)(C#CCN2CCOCC2)[C@@H]2CC[C@H]2CN2C[C@@]3(CCCc4cc(Cl)ccc43)COc3ccc(cc32)C(=O)NS1(=O)=O (stereo partly shown)
- IC50 [1, 5]: 151 nM
- IC50 [2, 6]: 0.348 nM

SMILES: C[C@@H]1CS(=O)(=O)NC(=O)c2ccc3c(c2)N(C[C@@H]2CC[C@H]2[C@](O)(CN2CCN4CCOC[C@@H]4C2)/C=C/[C@@H]1C)C[C@@]1(CCCc2cc(Cl)ccc21)CO3
- IC50 [1, 3]: 31 nM
- IC50 [2, 4]: 0.047 nM

SMILES: CCO[C@]1(CN2CCC3(CCO3)CC2)/C=C/C[C@H](C)[C@@H](C)S(=O)(=O)NC(=O)c2ccc3c(c2)N(C[C@@H]2CC[C@H]21)C[C@@]1(CCCc2cc(Cl)ccc21)CO3
- IC50 [1, 3]: 694 nM
- IC50 [2, 4]: 0.465 nM

SMILES: C=CC(=O)N1CCN2CCN(CC3(O)CCC[C@H](C)[C@@H](C)S(=O)(=O)NC(=O)c4ccc5c(c4)N(C[C@@H]4CC[C@H]43)C[C@@]3(CCCc4cc(Cl)ccc43)CO5)CC2C1 (stereo partly shown)
- IC50 [1, 3]: 78 nM
- IC50 [2, 4]: 0.147 nM

SMILES: CO[C@]1(CN2CCN3CCOC[C@@H]3C2)/C=C/C[C@H](C)[C@@H](Cc2ccccc2)S(=O)(=O)NC(=O)c2ccc3c(c2)N(C[C@@H]2CC[C@H]21)C[C@@]1(CCCc2cc(Cl)ccc21)CO3
- IC50 [1, 3]: 737 nM

SMILES: CO[C@@]1(CN2CCC3(CCO3)CC2)/C=C/C[C@H](C)[C@@H](C)S(=O)(=O)NC(=O)c2ccc3c(c2)N(C[C@@H]2CC[C@H]21)C[C@@]1(CCCc2cc(Cl)ccc21)CO3
- IC50 [1, 3]: 304 nM
- IC50 [2, 4]: 0.263 nM
